From US20150065717A1, “NIPECOTIC ACID DERIVATIVE AND USE THEREOF FOR MEDICAL PURPOSES” (Toray Industries, Inc., priority 2012, published 2015)

Protein sequences, listed by entry. Tags and fused reporters are not part of them.
UniProt P34913, whole entry: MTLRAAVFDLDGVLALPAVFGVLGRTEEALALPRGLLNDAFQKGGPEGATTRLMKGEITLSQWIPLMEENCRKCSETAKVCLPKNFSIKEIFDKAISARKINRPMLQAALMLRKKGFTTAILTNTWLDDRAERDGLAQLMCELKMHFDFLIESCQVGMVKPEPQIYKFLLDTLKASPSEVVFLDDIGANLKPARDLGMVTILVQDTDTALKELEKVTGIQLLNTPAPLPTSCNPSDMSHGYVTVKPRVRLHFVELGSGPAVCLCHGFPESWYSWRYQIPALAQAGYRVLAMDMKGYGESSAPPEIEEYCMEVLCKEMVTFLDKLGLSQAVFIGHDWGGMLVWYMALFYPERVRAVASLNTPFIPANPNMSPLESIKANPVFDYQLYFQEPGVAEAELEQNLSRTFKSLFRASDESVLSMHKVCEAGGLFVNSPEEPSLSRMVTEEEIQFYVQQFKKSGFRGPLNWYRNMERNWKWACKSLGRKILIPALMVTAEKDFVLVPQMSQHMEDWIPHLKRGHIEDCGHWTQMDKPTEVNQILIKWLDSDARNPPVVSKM

Biological target: recombinant human sEH (Homo sapiens, UniProt P34913)
Experiment: In vitro evaluation test for sEH inhibitory activity
Details: recombinant human sEH 0.026 μg/mL, fluorescent substrate 6.25 μmol/L, room temperature
Method: According to the method described in a known document (Analytical Biochemistry, 2005, vol. 343, p. 66-75), the sEH inhibitory activity of each nipecotic acid derivative (I) or a pharmaceutically acceptable salt thereof was evaluated using human sEH.
A recombinant human sEH (final concentration, 0.026 μg/mL; Cayman) was incubated with each test compound in 25 mM Bis-Tris-HCl buffer (pH 7.0) supplemented with 0.1 mg/mL BSA at room temperature for 30 minutes. Thereafter, cyano(6-methoxynaphthalen-2-yl)methyl 2-(3-phenyloxiran-2-yl)acetate (final concentration, 6.25 μmol/L; Cayman) was added thereto as a fluorescent substrate, and the resulting mixture was incubated at room temperature for 20 minutes. The reaction was then stopped by addition of ZnSO4 (final concentration, 0.2 mol/L), and the fluorescence intensity was measured (Fusion α (Packard); Excitation: 330 nm, Emission:485 nm).
The fluorescence intensity observed with addition of neither sEH nor a test compound was regarded as the sEH enzymatic reaction rate of 0%, and the fluorescence intensity observed with addition of sEH but without addition of a test compound was regarded as the sEH enzymatic reaction rate of 100%. From the obtained fluorescence intensity, the sEH enzymatic reaction rate of each test compound was calculated to determine IC50.

Work on `CC(C)(C(=O)N1CCC[C@@H](C(=O)NCc2ccc(C#N)cc2OC(F)(F)F)C1)n1cccn1` yielded an IC50 of 2.9 nM.
